Earlier results on one molecule are cited in patent US12565475B2, “Small molecule compound inhibiting signal transmission path of TLR7 and TLR9 and use thereof” (AJOU UNIVERSITY INDUSTRY-ACADEMIC COOPERATION FOUNDATION, priority 2019, dated 2026).

The chains behind the UniProt entries cited, without tags or fusion partners. Residues count along the entry.
UniProt Q9NR96, 26-1032 limits assumed: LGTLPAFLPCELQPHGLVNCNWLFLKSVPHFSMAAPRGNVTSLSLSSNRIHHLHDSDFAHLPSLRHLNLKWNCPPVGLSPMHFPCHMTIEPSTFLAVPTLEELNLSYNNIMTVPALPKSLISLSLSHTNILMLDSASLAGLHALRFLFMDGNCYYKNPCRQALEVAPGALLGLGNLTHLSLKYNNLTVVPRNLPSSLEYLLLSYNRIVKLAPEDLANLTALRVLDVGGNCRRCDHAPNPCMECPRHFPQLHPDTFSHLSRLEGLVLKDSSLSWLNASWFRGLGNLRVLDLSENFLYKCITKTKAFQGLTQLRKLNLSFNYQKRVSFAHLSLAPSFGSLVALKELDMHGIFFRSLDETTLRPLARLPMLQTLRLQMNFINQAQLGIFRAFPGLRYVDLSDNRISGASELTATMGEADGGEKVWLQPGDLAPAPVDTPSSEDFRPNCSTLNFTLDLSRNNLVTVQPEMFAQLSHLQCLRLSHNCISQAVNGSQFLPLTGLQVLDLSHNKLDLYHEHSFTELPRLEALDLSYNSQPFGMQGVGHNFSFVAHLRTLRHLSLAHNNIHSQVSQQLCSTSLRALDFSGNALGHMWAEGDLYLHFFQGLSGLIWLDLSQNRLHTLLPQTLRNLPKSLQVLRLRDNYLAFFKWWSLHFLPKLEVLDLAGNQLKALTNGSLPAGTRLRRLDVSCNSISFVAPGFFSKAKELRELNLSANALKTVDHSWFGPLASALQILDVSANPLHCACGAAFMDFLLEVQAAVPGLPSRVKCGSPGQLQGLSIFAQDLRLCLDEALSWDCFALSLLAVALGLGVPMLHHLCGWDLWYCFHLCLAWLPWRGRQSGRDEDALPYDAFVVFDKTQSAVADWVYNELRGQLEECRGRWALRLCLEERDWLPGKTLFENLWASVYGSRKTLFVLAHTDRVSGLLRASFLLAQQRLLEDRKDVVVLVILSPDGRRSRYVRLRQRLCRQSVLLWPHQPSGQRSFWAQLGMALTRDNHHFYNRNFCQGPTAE

This series addresses TLR9 (Homo sapiens, UniProt Q9NR96). The settings on record: read-out: Activity (μM), IC50; Target TLR9; values from cited literature/patent; cited from earlier work.

Consider `COc1cc2nc(-c3ccccc3)nc(N3CCN(CCN4CCCC4)CC3)c2cc1OC`, for which the IC50 is 0.0534 µM.
